Measured values taken from US20260042834A1, “ANTI-CORTICOTROPIN-RELEASING HORMONE ANTIBODIES AND POLYCYSTIC OVARY SYNDROME” (HBM ALPHA THERAPEUTICS, INC., priority 2022, published 2026).
Positions count from the first letter of the chain named. Like-named read-outs stand apart in the source and are kept apart here.

Sequences of proteins named here, by UniProt entry; tags and fusion partners are left off. Residues count along the entry.
UniProt P06850, 171-194: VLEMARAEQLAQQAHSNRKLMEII
UniProt P06850, 168-187: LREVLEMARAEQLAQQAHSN

B1: PR005660: ΔPTM variant of Series 1 mAb PR004290; HCDR2 54EG55, LCDR1 36QS37 (antibody)
heavy: EVQLVESGGVLVQPGGSLRLSCAASGFTFSSYWMTWVRQAPGKGLEWVANIKQEGSEKYYVDSVKGRFTISRDNAKNSLFLQMNSLRAEDTAVYYCARTLIFDYWGQGTLVTVSSASTKGPSVFPLAPSSKSTSGGTAALGCLVKDYFPEPVTVSWNSGALTSGVHTFPAVLQSSGLYSLSSVVTVPSSSLGTQTYICNVNHKPSNTKVDKKV[human IgG1 Fc not listed]
light: DIVMTQSPLSLPVTPGEPASISCRSSQSLLHSTGYQSLEWYLQKPGQSPQLLIYLGSNRASGVPDRFSGSGSGTDFTLKISRVEAEDVGIYYCMQTLQTPITFGQGTRLEIKRTVAAPSVFIFPPSDEQLKSGTASVVCLLNNFYPREAKVQWKVDNALQSGNSQESVTEQDSKDSTYSLSSTLTLSKADYEKHKVYACEVTHQGLSSPVTKSFNRGEC
B2: PR004290: Series 1 anti-CRH mAb from hybridoma clone 28b3 (CRH knockout H2L2 mice), recombinant with human IgG1 wildtype Fc (antibody)
heavy: B1 heavy with E54D
light: B1 light with Q36N

Key:
[1] = target: T1, N-terminal region plus central region, central region only, central region plus C-terminal region of CRH (Homo sapiens, UniProt P06850); test: ELISA determining the binding region of CRH; conditions: dash = no binding
T1 construct: N-terminal region plus the central region (CT biotin), the central region only (NT biotin or CT biotin)
Procedure: Streptavidin (Thermo, Cat: 21125) was diluted in PBS to a concentration of 2 μg/ml. 100 μl of diluted streptavidin was added per well to ELISA microplates, and the plates were incubated overnight at 4° C. Plates were blocked with ELISA blocking solution (containing 2% w/v BSA, 0.05% (v/v) Tween-20, pH 7.4 PBS buffer) at 37° C. for 1 hour, and then incubated with 1 μg/mL N-terminal region plus the central region (CT biotin), the central region only (NT biotin or CT biotin), or the central region plus C-terminal region (NT biotin) of CRH for 1 hour at 37° C. Plates were then washed and incubated with diluted anti-CRH antibody (Ab) at 15 μg/ml (100 nM, 10 diluted, 8 points) for 1 hour at 37° C. Subsequently, plates were washed and incubated with HRP-conjugated goat anti-human IgG (H+L) antibody (Jackson, Cat: 109-035-088) at 37° C. for 1 hour. 100 μL of 3,3′,5,5′-tetramethylbenzidine (TMB) substrate (Biopanda, Cat: TMB-S-003) was added, and the plates were incubated at room temperature for 15 minutes. 100 μL of ELISA stopping solution (Solarbio, Cat #: C1058) was added to terminate the reaction, and the optical density at 450 nm (OD450 nm) was determined by an ELISA plate reader (Molecular Devices, Spectra max 384 plus).

[2] = system: human CRHR1 (hUCN1-induced); test: Human UCN1-induced luciferase reporter assay, CHO-CRE-hCRHR1 cells; format: cell-based; conditions: Table 10; 1 nM hUCN1
Procedure: CHO-CRE-hCRHR1 and CHO-CRE-hCRHR2 cells were harvested with trypsin-EDTA (Life Technologies, Cat #:12604-013). Cells were centrifuged at 1,000 rpm for 5 min and resuspended in growth medium. Cells were counted using a cell counter, seeded at 5,000 cells per 100 μl to 96-well flat plates, and incubated overnight. 50 μl of 4× serially diluted antibody (8 points, 1/3 diluted by growth medium) or CP 376395 hydrochloride (TOCRIS, Cat #:3212) (8 points, 1/10 diluted by growth medium) was added to plates, followed by 50 μl 4×hUCN1 (4× is 4 nM, final is 1 nM) to CHO-CRE-hCRHR1 cells or CHO-CRE-hCRHR2 cells. Plates were then incubated for 4-6 hours at 37° C. in a CO2 incubator. Following this, 60 μl of culture medium was removed, to which was added 60 μl of Bio-Glo luciferase, followed by incubation for 10 min at RT. Plates were then read in a luciferase plate reader (EnVision, PerkinElmer).

[3] = system: restraint-induced ACTH and corticosterone; test: Wildtype mice restraint-stress model (ACTH and corticosterone); format: in vivo, mouse
Procedure: 8-10 week old wildtype female C57BL/6 mice were obtained from Charles River Laboratories. Mrap1 KO mice were obtained from Queen Mary University of London, UK. SSR125543A, a small molecule CRHR1 antagonist, was obtained from Axon Medchem (Cat #Axon 1799). Mouse Corticosterone (55-Corms-E01) and adrenocorticotropic hormone (ACTH) ELISA kits (21-ACTHU-E01) were obtained from ALPCO, USA. All procedures were carried out in accordance with the Guide for the Care and Use of Laboratory Animals of the National Institutes of Health. Protocols were approved by Charles River Laboratories Institutional Animal Care and Use Committee (IACUC).
To determine the effect of nonpainful physical restraint upon stress responses, mice were restrained in 50 ml polypropylene ventilated tubes in which the tip was cut off with a razor blade to allow the mouse to breathe easily for 15-20 minutes. A mouse was directed to the open tube and crawled in. A piece of paper towel was put behind the mouse so that it could not back out, and the cap was screwed on. The mouse was placed back in its cage, ventral size down on the bedding. This stressor is not considered painful, as mice are confined to a limited space (in a ventilated restraint tube) but not in an unnatural physical position. The investigator was present in the room during the entire procedure. At the end of the procedure, the mouse was removed by the tail.
On day 1, each mouse was injected intraperitoneally with 20 mg/kg of anti-CRH mAbs, hIgG1 or PBS (5 mice per group). On day 2 or 3, and 14 each mouse was subjected to physical restraint-stress described above for 15 or 20 min. Immediately after restraint-stress, 200 μl of blood was collected in EDTA tubes from the submandibular vein of each mouse. Plasma was separated using a refrigerated centrifuge (4° C. at 500×g for 10 min) and snap-frozen in dry ice for subsequent ACTH and corticosterone ELISA measurement.
On day 1, one half of mice were injected IP with 20 mg/kg of anti-CRH Ab or hIgG1 (5 mice per group). On day 3, the other half of mice were injected IP with 30 mg/kg of SSR125543A or solvent (5 mice each group). Two hours later, four groups of mice were subjected to restraint-stress as described above for 20 min. Immediately after restraint-stress, 200 μl of blood was collected in EDTA tubes from the submandibular vein of each mouse in all four groups. Plasma was separated as described above and snap-frozen in dry ice for subsequent ACTH and corticosterone ELISA measurement. On day 4, SSR125543A or solvent-treated mice were subjected to a second round of restraint stress for 20 min and plasma was collected. Two weeks later, anti-CRH mAb- or hIgG1-treated mice were subjected to physical stress for 20 min followed by plasma collection.

[4] = restraint, 20 mg/kg IP, Day 1 post-mAb dosing
[5] = restraint, fourteen days after a single dose 20 mg/kg IP

| Molecule | EC50 ([1]; central plus C-terminal region CRH peptide, NT-biotin (SEQ ID NO: 483), read-out: ELISA EC50 C-Ter-CRH (NT-Bion)) | EC50 ([1]; central region CRH peptide, CT-biotin (SEQ ID NO: 485), read-out: ELISA EC50 Central-CRH (CT-Bion)) | EC50 ([1]; central region CRH peptide, NT-biotin (SEQ ID NO: 484), read-out: ELISA EC50 Central-CRH (NT-Bion)) | CHO-CRE-hCRHR1 1 nM hUCH1 IC50 [2] | restraint-induced ACTH concentrations ([3]; 20 mg/kg IP) | restraint-induced corticosterone concentrations ([3]; 20 mg/kg IP) | plasma ACTH concentrations [3, 4] | plasma corticosterone concentrations [3, 4] | ACTH concentrations [3, 5] | corticosterone concentrations [3, 5] |
| --- | --- | --- | --- | --- | --- | --- | --- | --- | --- | --- |
| B1 | > 100 nM | > 100 nM | > 100 nM | No Inhibition |  |  |  |  |  |  |
| B2 |  |  |  | No Inhibition | markedly inhibited | markedly inhibited | down to basal unstressed levels | down to basal unstressed levels | remained partially inhibited | remained partially inhibited |
